Source: EP0356137A2 (priority 1988, dated 1990)

System: tubulin
Settings: 5 µM

COc1c(OC(=O)c2ccccc2)cc2c(c1OC)-c1ccc(SC)c(=O)cc1[C@@H](NC(C)=O)CC2 [3-benzoyl-3-demethylthiocolchicine]
Inhibition of [³H]colchicine binding % inhibition: 19%
